Values quoted from earlier work, collected in US4910152A, “Method for binding opioid receptors” (priority 1986, dated 1990).

System: opiate receptors
Conditions: animals and humans; cited from earlier work

Question: For `C=CCN1CC[C@]23c4c5ccc(O)c4O[C@H]2C(=O)CC[C@@]3(O)[C@H]1C5` [naloxone, reference compound], which “reduction of food intake” value is on record?
Answer: reduces food intake
